Literature values as cited in US20240116925A1, “SALT OF NITROGEN-CONTAINING FUSED HETEROCYCLIC COMPOUND OR CRYSTAL FORM THEREOF, AND PREPARATION METHOD THEREFOR, PHARMACEUTICAL COMPOSITION THEREOF, AND USE THEREOF” (SHANGHAI PHARMACEUTICALS HOLDING CO., LTD., priority 2021, published 2024).
Like-named read-outs stand apart in the source and are kept apart here.

Legend:
[1] = rat
[2] = mouse

## Cc1nc2c(F)cc(-c3nc(Nc4ccc5c(n4)CCN(CCN(C)C)C5)ncc3F)cc2n1C1CC1 [Compound I, N-(4-(1-cyclopropyl-4-fluoro-2-methyl-1H-benzimidazol-6-yl)-5-fluoropyrimidin-2-yl)-6-(2-(dimethylamino)ethyl)-5,6,7,8-tetrahydro-1,6-naphthyridin-2-amine]
[1]
  in vivo absorption properties: good in vivo absorption properties
[1]; in vivo
  bioavailability: high bioavailability
[2]
  in vivo absorption properties: good in vivo absorption properties
